From article PMC7728344, “Pharmacokinetic Characterization of (Poly)phenolic Metabolites in Human Plasma and Urine after Acute and Short-Term Daily Consumption of Mango Pulp” (Molecules, 2020)
Where two headings read alike, the source gives them in different places.

Assay type: in vivo, human
Set-up: AUC0–24h: concentration or dose not given beside the values
Description: SPE procedure was conducted to extract and concentrate the (poly)phenolic compounds and their metabolites from the plasma samples. Briefly, plasma samples were thawed on ice and 500 µL plasma was diluted with 1.5 mL of 0.1% formic acid in water with addition of internal standards (2-methylhippuric acid (2 ng/mL), phloridizin (1 ng/mL)) before being loaded on preconditioned SPE cartridges. The cartridges were washed with 0.1% formic acid in water (1 mL) after loading with plasma samples. The elution of the compounds was achieved by 0.1% formic acid in methanol (1 mL) and the eluent was dried under nitrogen gas at room temperature. […] Supernatant was collected in amber HPLC vials before analysis.
The absorption and elimination of 11 major mango metabolites over 24 h was determined after MP, MP + VC, and VC intake. The plasma concentration/area at each time point was determined by the mean of 13 subjects. The time vs. concentration curves and the time vs. area curves were created using GraphPad Prism (version 8.2.1). […] Tmax is the time (h) when Cmax was achieved. Wilcoxon signed-rank test was used for Tmax analysis due to non-normal distribution. Area under the plasma concentration time curve (AUC0−24h, nmol·h/L) was calculated by the linear trapezoidal method using Microsoft Excel 2013, version 15 [63]. […]

[1] = human plasma, 0−24 h, after VC (vitamin C 100 mg) beverage, mean ± standard error, read-out: Cmax
[2] = human plasma, after VC beverage, mean ± standard error

Row | Substance | time to reach maximum concentration/area in plasma (after mango intake) | time within which cleared from the bloodstream (after mango intake) | Cmax [1] | AUC0–24h [2] | AUC0–24h (human, in vivo) | Cmax (human, in vivo) | Tmax (human, in vivo)
1 | ferulic acid hexoside [Compound C5] | 1 to 2 h | 6 to 8 h | 0.5 ± 0.1 nM | 0.0025 ± 0.0001 µM·h | 0.0077 ± 0.0012 µM·h | 2.3 ± 0.4 nM | 1.8 ± 0.2 h
2 | methylpyrogallol glucuronide [Compound C9] | – | – | 4.8 ± 0.3 nM | 0.0261 ± 0.0017 µM·h | 0.0291 ± 0.003 µM·h | 6.7 ± 2.3 nM | 7.2 ± 2.4 h
3 | methylpyrogallol sulfate isomer 1 [Compound C6] | – | – | – | – | 0.6169 ± 0.0837 µM·h | 230 ± 32.3 nM | 8.6 ± 0.5 h
4 | methylpyrogallol sulfate isomer 2 [Compound C7] | – | – | – | – | 0.3754 ± 0.0943 µM·h | 244 ± 71.8 nM | 9.8 ± 1.8 h
